Yeast mating assay B: variants of the scFv Ab-14

Antigen: PDVDLGDISGINAS, a 14-residue peptide of the SARS-CoV-2 spike HR2 region.

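Phage display of a naive human antibody library on the peptide gave the parent. The variants were designed computationally from a first round of random CDR variants and then made and measured. Group labels follow the data file (Ctrl: baseline library sampled from a position-specific scoring matrix, with some repeated check sequences; Rand: our label for a block that the file lists under HC and that is probably the random mutants of the ten best first-round binders; En: ensemble of fine-tuned language models; GP: Gaussian process model; GPLM: also part of the Gaussian process libraries; HC: hill climbing; Gen: genetic algorithm; Gibbs: Gibbs sampling; a sequence that several methods proposed may carry one label only). The assay is AlphaSeq: two haploid yeast populations carry antibody and antigen on their surface. Mating (16 h, 30 °C) was followed by selection of diploids and sequencing of their barcodes. Scores were corrected for input abundance and mapped to Kd with protein pairs of known affinity run in the same pool. The assay was run in six technical replicates.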

Each scFv is VH, the linker GGGGSGGGGSGGGGS, VL, as in the parent Ab-14, and differs from it in the CDRs of the heavy chain only.
VH: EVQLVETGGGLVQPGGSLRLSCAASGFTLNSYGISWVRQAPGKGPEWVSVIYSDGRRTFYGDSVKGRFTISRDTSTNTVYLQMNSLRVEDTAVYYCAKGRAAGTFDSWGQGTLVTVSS
VL: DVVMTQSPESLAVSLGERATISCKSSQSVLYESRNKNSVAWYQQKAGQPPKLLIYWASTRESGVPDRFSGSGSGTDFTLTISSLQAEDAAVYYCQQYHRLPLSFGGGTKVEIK

Variants are written as CDR1, CDR2 and CDR3 of the heavy chain (limits as in the source). Parent: GFTLNSYGIS, VIYSDGRRTFYGDSVK, GRAAGTFDS. Affinities are written as log10 Kd with Kd in nM; a lower number is a better binder. A mean of the replicates is given; it leaves out those without a signal. A pair that was not seen in any replicate is written "not detected"; this usually means weak binding, but a binder can also be missed. The authors averaged sequences with at least three values out of six and counted those with two or fewer as poor binders. Three control strains display no target. For all heavy chain designs, 1% of the pairings with them gave a signal, with a median of 2.08 and one signal in twenty below 0.84, so weak values seen in few replicates may be background. Where one sequence has several entries in the source, the replicates are pooled. The range of this assay differs from that of the first round, and the authors advise against merging the two.

CDR-H1,CDR-H2,CDR-H3,group,"log10 Kd (nM), mean",seen in
GFTLNEYGIS,VIYSDGRRTFYGDAVK,GRAAVTFDM,GP_HC,not detected,0 of 6
GFTLNSYGIS,VIYADGWRTFYGDSVK,GQAAGTFDS,Ctrl,0.91,6 of 6
GFTLNDYGIS,VIYSDGRRTFHGDSVK,GRAALTFIS,Rand,not detected,0 of 6
GFDLNSYGIS,VIYSDGRRTFYGDDVK,GRAAGHFNS,GP_HC,not detected,0 of 6
GFDLNEYGIS,VIYADGMRTFYTDSVK,GENAGTFDL,En_Gen,-0.01,6 of 6
GFSLNEYGIS,VIYSDGRRTFYGCSVK,GRNAGTFDS,GP_Gibbs,3.17,3 of 6
GFNLNSYGIS,VAYSDGRRTFYGDSVK,GREAITFDS,Ctrl,not detected,0 of 6
GFSLNSYGIS,VIYSDGRRTFYADSVK,GKMAGTFDS,GPLM_Gen,-0.26,6 of 6
GFDLDEYGIS,VIYADGQRTAYADDVK,GNVAGTFDT,En_Gen,-0.52,6 of 6
GFQLNDYGIS,VIYSDGRRTFYGDSVK,GRAAGTFTS,GP_HC,1.86,4 of 6
GFSLDEYGIS,VIYADGVRTFYADSVK,GNSAGTFDS,En_HC,-0.97,5 of 6
GFTVNEYGIS,VIYSDGRRTFYGDDVK,GRAAGTFDS,Ctrl,0.83,5 of 6
GFTLNQYGIS,VIYSDGRRTQYSDSVK,GRAAGTFDS,Ctrl+GPLM_HC,1.25,12 of 12
GFDLNEYGIS,VIYADGKRTAYSDSVK,GNNAGTFDI,En_Gen,0.86,6 of 6
GFDLNSYGIS,VIYSDGRRTFYADSVK,GREAGTFDK,GP_Gen,-0.21,6 of 6
GFDLNEYGVS,VIYADGIRRAYAANFK,GVNAGGLDI,En_Gibbs,not detected,0 of 6
GFTLDSYGIS,VIYSDGRRTFYGDSVK,GRAAGTFDR,GP_HC,1.29,3 of 6
GFTLNEYGIS,VIYADGRRTFYGDSVK,GRAAGTFKL,GP_HC,2.16,3 of 6
GFSLNSYGIS,VIYSDGRRTAYGDSVK,GRAHGTFDS,Ctrl,3.72,3 of 6
GFVWNDYGSS,VIYSDGRRTFYGDDVK,GRAAGTFDS,Ctrl,not detected,0 of 6
GFTLNEYGIS,VIYSDGRRTFYTDSVK,GEFAGTFDS,Rand,1.45,2 of 6
GFTLNEYGIS,VIYSDGRRTFYGDSVK,GRFAGTFDK,GPLM_HC,1.53,6 of 6
GFDLNEYGIS,VIYADGMRTVYADSVK,GNNAGTFDQ,En_Gen,-0.22,6 of 6
GFTLGSYGIS,VIYSDGLRTFYGDSVK,GRAAGTFDS,Ctrl,2.24,3 of 6
GFNLEEYGIS,VIYADGFRASYTDDVK,GQNGSVNLR,En_Gibbs,not detected,0 of 6
GFDLNEYGIS,VIYADGMRTAYSDNVK,GNQAGTFDI,En_Gen,0.41,6 of 6
GESLDSYGIS,VIYADGMRTSYTNSVK,GVWAGTFDG,En_Gibbs,not detected,0 of 6
GFTLNEYGIS,VIYSDGRRTFYHDSVK,GRFAGTFDN,GPLM_HC,1.37,6 of 6
GFGLNSYGIS,VIYSDGRRTFYIDQVK,GQTAGTFDS,GP_Gibbs,1.68,2 of 6
GFDLNEYGIS,VIYADGMRTAYADKVK,GGNAGTFDI,En_Gen,-0.64,6 of 6
GFKIDEYGIS,VIYADGMRRSYADSFK,GAESGYMVV,En_Gibbs,not detected,0 of 6
GFTLNSYGIS,VIYSDGRRTFYTDSVK,GRVAGTFDS,Ctrl,0.81,4 of 6

Second part, the sequence after the result:

"log10 Kd (nM), mean",seen in,CDR-H1,CDR-H2,CDR-H3,group
0.50,6 of 6,GFTLNSYGIS,VIYSDGRRTFYADSVK,GEAAGTFDK,GPLM_Gen
0.76,6 of 6,GFNLNSYGIS,VIYSDGRRTFYSDSVK,GQAAGTFDS,GPLM_Gen
not detected,0 of 6,GKNLDEYGIS,VIYADGMRSMYADSVK,GGISGWTFI,En_Gibbs
0.49,6 of 6,GFQLNEYGIS,VIYSDGRRTFYSDSVK,GHAAGTFDS,GP_HC
not detected,0 of 6,GETLNSYGIS,VIYSDGRRTYYQDSVK,GRAEGTFKS,Ctrl
0.03,6 of 6,GFDLNEYGIS,VIYADGVRTFYSDSVK,GNQAGTFDV,En_HC
0.65,6 of 6,GFTLNSYGIS,VIYSDGRRTFYSDSVK,GSAAGTFDA,GPLM_HC
0.82,4 of 6,GFWLNEYGIS,VIYSDGRRTFYGDSVK,GREAGTFDS,GPLM_HC
not detected,0 of 6,GFTLNEYGIQ,VIYSDGRRTFYGDSGK,GRAAVTFDQ,Rand
2.09,1 of 6,GFDLNEYGIS,VIYADGKRTFYADSVK,GQNAGTFDQ,En_HC
2.11,1 of 6,GFDNNSYGIS,VIYSDGRRTFYGDSVK,GRAAGTFDS,Ctrl
-0.10,6 of 6,GFDLNEYGIS,VIYADGKRTAYSDSVK,GGNAGTFDI,En_Gen
-0.51,6 of 6,GFDLNEYGIS,VIYADGQRTAYADSVK,GKAAGTFDS,En_HC
-0.59,6 of 6,GFDLNSYGIS,VIYSDGRRTFYADSVK,GWTAGTFDS,GPLM_Gen
-0.12,6 of 6,GFTLNEYGIS,VIYSDGRRTFYTDSVK,GREAGTFDV,GP_HC
not detected,0 of 6,GFTLDSYGIS,VIYSDGRRTFYGDSVK,GRAAGTALL,Rand
1.24,4 of 6,GFKLNSYGIS,VIYSDGRRTFYGDSVK,GQTAGTFDL,GP_Gibbs
0.12,6 of 6,GFTLNEYGIS,VIYSDGRRTFYRDSVK,GRTAGTFDS,GP_HC
1.60,5 of 6,GFSLNSYGIS,VIYSDGRRTFYIDSVK,GRMAGTFDS,GP_Gen
1.07,6 of 6,GFELNSYGIS,VIYSDGRRTFYGDAVK,GRNAGTFDS,GP_Gibbs
not detected,0 of 6,GFTLNDYGIS,VIYADGRRTMYGDSVK,SRAAGGFDS,Ctrl
-0.23,6 of 6,GFDINEYGIS,VIYADGRRTFYADSVK,GNQGGTFDM,En_HC
1.03,6 of 6,GFTLNEYGIS,VIYSDGRRTFYGDSVK,GRDAGTFDS,GP_HC
not detected,0 of 6,GFPLEDYGIS,VIYSDGRRTFYGDSVK,GRAAATDKS,Ctrl
0.50,6 of 6,GFWLNDYGIS,VIYSDGRRTFYGDSVK,GREAGTFDT,GP_Gen
not detected,0 of 6,GMDLNEYGIS,VIYADGKRSYYVQDVK,GTNIGQGTD,En_Gibbs
0.51,5 of 6,GFELNSYGIS,VIYSDGMRTFYKDSVK,GRTAGTFDS,GP_Gen
0.84,6 of 6,GFELNSYGIS,VIYSDGRRTFYGDRVK,GQTAGTFDS,GP_Gibbs
not detected,0 of 6,GFHLNSYGIS,VIYSDGRRTFYGDSVK,NYAAGIFPS,Ctrl
not detected,0 of 6,GFQLDEYGIS,VIYADGERTAYAQNFK,GNGLVLYEG,En_Gibbs
-0.25,6 of 6,GFSLNDYGIS,VIYSDGRRTMYGDSVK,GRTAGTFDS,GPLM_Gen
not detected,0 of 6,GFDLDEFGIS,VIYADGSRQVYQDNVK,GVGFGTFTD,En_Gibbs
0.88,3 of 6,GFSLNSYGIS,VIYSDGRRTFYGDSVK,GQAAGTFDM,GPLM_Gen

The 4 strongest on average among those seen in every replicate, once more:

CDR-H1	CDR-H2	CDR-H3	group	log10 Kd (nM), mean	seen in
GFDLNEYGIS	VIYADGMRTAYADKVK	GGNAGTFDI	En_Gen	-0.64	6 of 6
GFDLNSYGIS	VIYSDGRRTFYADSVK	GWTAGTFDS	GPLM_Gen	-0.59	6 of 6
GFDLDEYGIS	VIYADGQRTAYADDVK	GNVAGTFDT	En_Gen	-0.52	6 of 6
GFDLNEYGIS	VIYADGQRTAYADSVK	GKAAGTFDS	En_HC	-0.51	6 of 6

The measurements come from Li et al. 2023 (doi:10.1038/s41467-023-39022-2) through the FLAb antibody collection.